Measured values from PubChem BioAssay AID602329 (Broad Institute, 2012).
The entries are a selection whose mix differs from that of the whole data set. Some of these compounds have results that are not shown, active ones among them. The source made the active and inactive calls.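 The calls were made as follows: active = mean normalized replicate activity at least 40 and at least half of replicates scoring 40 or more; inconclusive = only one of the two criteria met; inactive = mean below 40 and under half of replicates reaching 40.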

Protein sequences, listed by entry. Tags and fused reporters are not part of them.
UniProt Q92698, whole entry: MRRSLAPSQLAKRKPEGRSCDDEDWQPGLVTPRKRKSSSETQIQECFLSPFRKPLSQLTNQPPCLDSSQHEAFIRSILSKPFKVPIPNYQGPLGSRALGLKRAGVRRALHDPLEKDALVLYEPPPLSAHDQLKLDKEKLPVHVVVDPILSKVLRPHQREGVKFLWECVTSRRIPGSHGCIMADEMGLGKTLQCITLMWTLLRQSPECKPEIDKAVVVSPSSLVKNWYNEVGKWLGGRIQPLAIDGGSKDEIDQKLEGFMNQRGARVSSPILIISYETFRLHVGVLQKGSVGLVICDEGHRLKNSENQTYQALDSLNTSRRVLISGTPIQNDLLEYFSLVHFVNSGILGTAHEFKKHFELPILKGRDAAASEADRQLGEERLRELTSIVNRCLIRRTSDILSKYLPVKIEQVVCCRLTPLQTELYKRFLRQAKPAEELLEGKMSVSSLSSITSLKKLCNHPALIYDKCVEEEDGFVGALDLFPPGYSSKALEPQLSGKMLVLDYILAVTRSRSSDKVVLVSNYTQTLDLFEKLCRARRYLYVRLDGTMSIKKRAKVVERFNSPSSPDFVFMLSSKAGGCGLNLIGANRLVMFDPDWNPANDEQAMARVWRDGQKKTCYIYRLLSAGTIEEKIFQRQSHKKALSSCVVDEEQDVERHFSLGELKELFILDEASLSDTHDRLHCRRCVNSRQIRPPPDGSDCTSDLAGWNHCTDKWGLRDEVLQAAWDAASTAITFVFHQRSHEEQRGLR

The molecules below were run against DNA repair and recombination protein RAD54-like (Homo sapiens) (UniProt Q92698) (assay: inhibitors of human RAD54 branch migration, primary screen, biochemical, fluorescence, single point (AID 602329;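 also: 0% = median of neutral control wells and 100% = median of positive control wells; inhibitors cause a drop in the FAM fluorescence signal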)). Conditions: RAD54 Holliday junction branch migration, FAM/BHQ fluorescence; at 10.4 µM; hits give high values.
With `CN(C)c1ccc(C(=O)NCC2(N(C)C)CCCCC2)cc1` the inhibition was inactive: -3.41%. For `O=C(NCC1(N2CCCCC2)CCCCC1)c1cc(F)c(F)cc1Cl`, the inhibition was inactive: 2.22%. With `COc1ccc(C(=O)NCC2(N(C)C)CCCCC2)cc1` the inhibition was inactive: -5.04%. With `O=C(NCC1(N2CCCCC2)CCCCC1)c1cccc(Br)c1` the inhibition was inactive: 3.36%. With `Cc1cc(C(=O)NCC2(N3CCCCC3)CCCCC2)ccc1[N+](=O)[O-]` the inhibition was inactive: 4.35%. For `CN1[C@@H]2CC[C@H]1CC(OC(=O)C(O)(c1ccccc1)c1ccccc1)C2` (some centres undefined), the inhibition was inactive: 6.06%. For `COc1cc(SC)ccc1C(=O)NCC1(N(C)C)CCCCC1`, the inhibition was inactive: 10.8%. In the case of `CCN(CC)CC(C)C(C)OC(=O)C(O)(c1ccccc1)c1ccccc1` (centres undefined), the inhibition is reported as inactive: 3%. With `CC(C)N1C(=O)CC2(CCN(CCOC(=O)C(O)(c3ccccc3)c3ccccc3)CC2)C1=O` the inhibition was inactive: 3.35%. For `Cc1ccc(C(=O)NCC2(N3CCCCC3)CCCCC2)cc1`, the inhibition was inactive: -4.8%. With `C=C(C)C#CC(O)(C(=O)OC1CCN(C)CC1)c1ccccc1` (centres undefined) the inhibition was inactive: 8.02%. For `COc1ccc(Br)c(C(=O)NCC2(N3CCCCC3)CCCCC2)c1`, the inhibition was inactive: -3.78%. `O=C(OCCN1CCCC1)C(O)(c1ccccc1)c1ccccc1` was tested, and the inhibition was inactive: 6.34%. `CC(C)Oc1ccc(C(=O)NCC2(N(C)C)CCCCC2)cc1` was tested, and the inhibition was inactive: 3.73%. With `CN(C)c1cccc(C(=O)NCC2(N(C)C)CCCCC2)c1` the inhibition was inactive: 9.61%. For `CN(C)C1(CNC(=O)c2ccc(Br)cc2)CCCCC1`, the inhibition was inactive: -4.55%. In the case of `COc1cc(C(=O)NCC2(N(C)C)CCCCC2)c([N+](=O)[O-])cc1OC`, the inhibition is reported as inactive: -4.43%. `COc1ccc(Cl)cc1C(=O)NCC1(N(C)C)CCCCC1` was tested, and the inhibition was inactive: -8.32%. In the case of `O=C(NCC1(N2CCCCC2)CCCCC1)c1cccc(Cl)c1`, the inhibition is reported as inactive: 3.11%.
